The record followed here is US6620831B2, “Indazoles substituted with 1,1-dioxoisothiazolidine useful as inhibitors of cell proliferation” (LG Life Sciences Ltd., priority 2000, dated 2003).

The target of the assay is T1, CDK2/cyclin A (Homo sapiens, UniProt P24941).
T1 construct: made in house; host or cells: insect ('worm') cells co-infected with baculoviruses
Kind of assay: CDK2 inhibitory activity (CDK2/cyclin A, [gamma-32P] ATP, histon H1 or Rb protein substrate). The class given is biochemical. The conditions noted are these: first IC50 column (c1) of Table 1. From the text: CDK2 enzyme was obtained from either extract from the worm cell co-infected with baculovirus which expresses a CDK2 gene and baculovirus which expresses a cyclin A gene, or active enzyme purified therefrom. CDK4 was also obtained from either extract from the worm cell co-infected with baculovirus which expresses a CDK4 gene and baculovirus which expresses a cyclin D1 gene. As substrates, histon H1 or Rb protein was used for CDK2, and Rb protein for CDK4. The radioactive activities in substrates were determined by reacting compounds diluted with each concentration with a proper quantity of CDK2/cyclin A or CDK4/cyclin D1 and substrate protein, and [gamma-32P labeled] ATP, and then separating the substrates.
Inhibitory abilities of inhibitors according to the present invention for each enzyme activity were expressed as IC50 values, which were determined in accordance with the method as described above.

As a reminder, the IC50 is the midpoint of a concentration-inhibition curve. Compound `O=C(Cc1ccc(N2CCCCC2)cc1)Nc1n[nH]c2ccc(N3CCCS3(=O)=O)cc12` [Compound 34, N-[5-(1,1-dioxo-1λ^6-isothiazolidin-2-yl)-1H-indazol-3-yl]-2-[4-(1-piperidinyl)phenyl]acetamide] displayed a half-inhibitory concentration (IC50) of less than 50 nM.
